## Ab-14 heavy chain CDR variants: yeast mating affinities

All variants were tested on one target, the spike HR2 peptide PDVDLGDISGINAS (SARS-CoV-2).

Each scFv is VH, a 15-residue (Gly4Ser)3 linker, VL, as in the parent Ab-14, and differs from it in the CDRs of the heavy chain only.
VH: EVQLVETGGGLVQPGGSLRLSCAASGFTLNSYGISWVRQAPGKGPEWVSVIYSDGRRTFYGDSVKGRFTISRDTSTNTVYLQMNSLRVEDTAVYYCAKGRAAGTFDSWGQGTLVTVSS
VL: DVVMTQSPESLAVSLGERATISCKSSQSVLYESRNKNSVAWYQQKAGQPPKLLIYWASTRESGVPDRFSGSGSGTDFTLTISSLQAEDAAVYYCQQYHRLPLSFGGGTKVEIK

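The library (AAYL49) carries one to three amino acid substitutions per variant, with no insertions or deletions. The assay is AlphaSeq: two haploid yeast populations carry antibody and antigen on their surface. After mating in shaken culture at 30 °C for 16 h, diploids were selected and their barcode pairs sequenced. A regression on co-assayed BCL2-family reference pairs converts the normalised counts of each replicate to an apparent Kd. Each pool was mated in three replicate cultures.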

The parent's heavy chain CDRs are GFTLNSYGIS, VIYSDGRRTFYGDSVK, GRAAGTFDS; each variant's own CDRs replace them letter for letter.
All variants listed here change D62 of the VH, counted from its first residue.
Each Kd is an estimate from the mating assay, the geometric mean of the replicates in which the pair was seen; lower is stronger.
Where no diploid with the target was found in any replicate, the entry reads "nd": below detection, most likely a poor binder, though not proof of it.
For reference, the parent read 4.4 nM as the reference entry and 13 µM (one replicate of three) as a member of this library.
Background: pairings of library AAYL49 with three empty control strains gave a value in 15% of cases (median 11 µM, 5th percentile 680 nM). Values in that range, when seen in few replicates, are hard to tell from nonspecific mating.

* GFTLNLYGIS / VIYSDGRRTFYGWSVY / GRAAGTFDS = nd (0 of 3 replicates)
* GFTLNSYGIS / VIYSDGRRTFYGPSVK / SRAAGTFDS = 32 nM (3 of 3 replicates)
* GFTLNSYGIS / VIYSDGRRTFYGISHG / GRAAGTFDS = nd (0 of 3 replicates)
* GFTLNSYGIS / VIYSDRRRTFYGFSVK / GRAAGTFIS = 7.3 µM (1 of 3 replicates)
* GFTLNSYGIS / VIYSDGRRTFYGHSVK / GRLNGTFDS = 26 µM (2 of 3 replicates)
* GLTLNSYGIS / VIYSDGRRTFYGNSVK / GRAAGTFDS = 110 nM (3 of 3 replicates)
* PFTLNSYGIS / VIYSDGRREFYGPSVK / GRAAGTFDS = 13 µM (2 of 3 replicates)
* GFTLNSYCIS / VIYSDGRRAFYGYSVK / GRAAGTFDS = 130 µM (3 of 3 replicates)
* GFILNSYGIS / VIYSCGRRTFYGVSVK / GRAAGTFDS = 5.3 µM (1 of 3 replicates)
* GFTLYSYGIS / VIYSDGRRTFYGYSVK / GRAMGTFDS = nd (0 of 3 replicates)
* GFTLNSRGIS / VIYSDGNRTFYGHSVK / GRAAGTFDS = nd (0 of 3 replicates)
* GFTLLSYGIS / VIYSDGRRTFWGVSVK / GRAAGTFDS = 1.7 µM (1 of 3 replicates)
* GFTLNSVGIS / VIYSDGRRTFYGQSVK / GRAAGTFLS = 73 µM (2 of 3 replicates)
* GFTLNSYGIS / VIYSDGRHTFYGRSVK / GRWAGTFDS = nd (0 of 3 replicates)
* GFTLNSYGIS / VIYSDGRRTHYGHSVK / GRAAGTFDS = 5.2 µM (3 of 3 replicates)
* GFTLNSYGIS / VIYSDGRRGFYGRSVK / YRAAGTFDS = 4.7 µM (2 of 3 replicates)
* IFTLNSYGIS / VIYSDGRRTFYGISVA / GRAAGTFDS = 170 µM (2 of 3 replicates)
* YFTLNSHGIS / VIYSDGRRTFYGFSVK / GRAAGTFDS = nd (0 of 3 replicates)
* GFTLNSYGIS / VIYSDGRRTFYDWEVK / GRAAGTFDS = 220 nM (1 of 3 replicates)
* GFTKNSYGIS / VIYSDGRRNFYGASVK / GRAAGTFDS = 870 nM (1 of 3 replicates)
* GFVLNSYGIS / VIYSDGRRTFYGPSVK / GRAAGLFDS = nd (0 of 3 replicates)
* GFTLNSYGIS / VIYSEGSRTFYGISVK / GRAAGTFDS = 62 µM (2 of 3 replicates)
* GFTLNAYGIS / VIYSDGRRTFYGQNVK / GRAAGTFDS = 35 nM (3 of 3 replicates)
* GFTLNSYGIS / VIYSDGRRTFYGWSVP / GNAAGTFDS = nd (0 of 3 replicates)
* GFTLNSYGIS / VIYSDGGRTFYGKSVK / GRAAGTFVS = 11 µM (1 of 3 replicates)

Again, the first 2 entries without any signal:

CDR-H1,CDR-H2,CDR-H3,Kd (apparent),detected
GFTLNLYGIS,VIYSDGRRTFYGWSVY,GRAAGTFDS,nd,0/3
GFTLNSYGIS,VIYSDGRRTFYGISHG,GRAAGTFDS,nd,0/3

Source: Engelhart et al. 2022 (doi:10.1038/s41597-022-01779-4), MIT Lincoln Laboratory and A-Alpha Bio; data file from the FLAb repository.